# Results published in PubChem BioAssay AID434982 (The Scripps Research Institute Molecular Screening Center, 2010).
# This is a selection; strong and weak results do not stand in their true shares. The source made the active and inactive calls. No stated cut-off is given here; in the data, active means activation above about 2.2%; inactive means the rest.
# Assay: activates NOTCH signaling in reporter cells (AID 434982)
# Settings: NOTCH signaling luciferase reporter cells, luminescence; at 2.5 µM; hits give high values
row,SMILES,activation
1,Cc1ccccc1NC1CC(C)(C)NC(C)(C)C1,inactive: -0.77%
